According to ChEMBL document CHEMBL3217438, “Diphenylbutylpiperidine-based cell autophagy inducers: Design, synthesis and SAR studies” (Medchemcomm, 2011):
Some compounds may have been tested in ways that are not shown here.

Test: Induction of autophagy in human H4-LC3 cells assessed as number of spots of LC3-GFP after 4 hrs by DAPI staining

SMILES | EC50 [µM]
O=c1[nH]c2ccccc2n1C1CCN(CCCC(c2ccc(C(F)(F)F)cc2)c2ccc(C(F)(F)F)cc2)CC1 | 1.2
N#CC(CCCN1CCC(n2c(=O)[nH]c3ccccc32)CC1)(c1ccccc1)c1ccccc1 | 8.2
